LLE data for one molecule are collected here from article PMC7586344, “Discovery of Novel pERK1/2- or β-Arrestin-Preferring 5-HT1A Receptor-Biased Agonists: Diversified Therapeutic-like versus Side Effect Profile” (Journal of Medicinal Chemistry, 2020).

By UniProt entry, the sequences of proteins in these tests, tags left out.
UniProt P08908, whole entry: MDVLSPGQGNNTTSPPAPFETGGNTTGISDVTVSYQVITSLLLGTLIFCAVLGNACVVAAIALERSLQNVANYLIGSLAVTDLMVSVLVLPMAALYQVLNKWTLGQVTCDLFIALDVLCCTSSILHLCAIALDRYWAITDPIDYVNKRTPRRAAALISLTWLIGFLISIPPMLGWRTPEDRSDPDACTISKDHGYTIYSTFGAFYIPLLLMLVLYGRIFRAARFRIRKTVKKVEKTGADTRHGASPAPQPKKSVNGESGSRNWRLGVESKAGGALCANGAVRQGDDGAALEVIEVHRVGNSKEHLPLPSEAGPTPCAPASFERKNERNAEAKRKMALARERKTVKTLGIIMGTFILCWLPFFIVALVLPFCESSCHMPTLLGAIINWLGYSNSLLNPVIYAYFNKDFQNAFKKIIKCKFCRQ

The target in this test is 5-HT1A receptor (Homo sapiens, UniProt P08908). Description: Serotonin 5-HT1A receptor radioligand binding assay. Further details: expressed in transfected cells; host or cells: CHO. Conditions: pKi minus ClogD7.4, referring to the 5-HT1A receptor.

For the molecule `Cc1cnc(CNCC2(F)CCN(C(=O)c3ccc(F)c(Cl)c3)CC2)nc1` [Compound 1, {[1-(3-chloro-4-fluorobenzoyl)-4-fluoropiperidin-4-yl]methyl}[(5-methylpyrimidin-2-yl)methyl]amine], the LLE came to 6.37.
